{"sequences": {"note": "Protein sequences, listed by entry. Tags and fused reporters are not part of them.", "UniProt Q16853, whole entry": "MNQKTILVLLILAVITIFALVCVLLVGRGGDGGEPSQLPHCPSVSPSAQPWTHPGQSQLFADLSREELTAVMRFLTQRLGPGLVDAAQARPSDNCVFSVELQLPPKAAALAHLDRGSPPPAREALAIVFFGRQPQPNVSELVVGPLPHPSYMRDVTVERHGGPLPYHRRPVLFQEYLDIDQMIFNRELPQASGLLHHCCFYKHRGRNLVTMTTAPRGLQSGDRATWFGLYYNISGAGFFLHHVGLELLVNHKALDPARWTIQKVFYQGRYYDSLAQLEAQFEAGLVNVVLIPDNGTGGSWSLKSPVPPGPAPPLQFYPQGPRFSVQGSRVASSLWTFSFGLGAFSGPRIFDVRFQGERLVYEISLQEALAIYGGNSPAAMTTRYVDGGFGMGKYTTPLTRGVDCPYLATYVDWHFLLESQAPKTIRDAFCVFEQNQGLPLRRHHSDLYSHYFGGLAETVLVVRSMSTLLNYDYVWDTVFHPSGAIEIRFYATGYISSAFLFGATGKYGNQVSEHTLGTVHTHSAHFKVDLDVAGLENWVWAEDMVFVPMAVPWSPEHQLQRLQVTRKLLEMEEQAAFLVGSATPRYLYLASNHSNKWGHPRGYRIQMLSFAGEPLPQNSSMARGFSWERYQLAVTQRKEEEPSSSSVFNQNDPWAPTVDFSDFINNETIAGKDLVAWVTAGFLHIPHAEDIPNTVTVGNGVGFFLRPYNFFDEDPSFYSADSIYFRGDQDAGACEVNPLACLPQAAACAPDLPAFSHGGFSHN"}, "source": "patent US7499847B2", "about": "“Crystalline VAP-1 and uses thereof” (Biotie Therapies Corporation, priority 2003, dated 2009)", "key": {"[1]": {"biological_target": "Recombinant human VAP-1 SSAO (Homo sapiens, UniProt Q16853)", "assay": "VAP-1 SSAO activity, coupled colourimetric assay (benzylamine substrate)", "type": "biochemical", "conditions": "for Selectivity for VAP-1 SSAO over MAO: ratio of total rat MAO IC50 to human VAP-1 SSAO IC50; for IC50: read-out: VAP-1 SSAO inhibitory activity IC50, CHO cell lysate with recombinant human VAP-1 SSAO, 1 mM benzylamine, 1 h at 37° C.", "description": "VAP-1 SSAO activity was measured using the coupled colourimetric method essentially as described for monoamine oxidase and related enzymes. Recombinant human VAP-1 SSAO expressed in Chinese Hamster Ovary (CHO) cells was used as a source of VAP-1 SSAO for activity measurements. Native CHO cells have negligible SSAO activity. These cells and their culture have previously been described (Smith D J et al., 1998).\nA cell lysate was prepared by suspending approximately 3.6×10^8 cells in 25 ml lysis buffer (150 mM NaCl, 10 mM Tris-Base pH 7.2, 1.5 mM MgCl2, 1% NP40) and incubating at 4° C. overnight on a rotating table. The lysate was clarified by centrifugation at 18000 g for 5 min at room temperature and the supematant used directly in the assay.\nThe VAP-1 SSAO assay was performed in 96 well microtitre plates as follows. To each well was added a predetermined amount of inhibitor if required. The amount of inhibitor varied in each assay but was generally at a final concentration of between 1 nM and 50 μM. Controls lacked inhibitor. The inhibitor was in a total volume of […] in water. The following reagents were then added. 0.2M potassium phosphate buffer pH 7.6 to a total reaction volume of 200 μl, 45 μl of freshly made chromogenic solution containing 1 mM 2,4-dichlorophenol, 500 μM 4-aminoantipyrine and 4 U/ml horseradish peroxidase and an amount of CHO cell lysate containing VAP-1 SSAO that caused a change of 0.6 A490 per h. This was within the linear response range of the assay.\nThe plates were incubated for 30 min at 37° C. and the background absorbance measured at 490 nm using a Wallac Victor II multilabel counter. To initiate the enzyme reaction 20 μl 10 mM benzylamine (final concentration=1 mM) was added and the plate incubated for 1 h at 37° C.\nThe increase in absorbance, reflecting VAP-1 SSAO activity, was measured at 490 nm. Inhibition was presented as percent inhibition compared to control after correcting for background absorbance and IC50. values calculated using GraphPad Prism."}, "[2]": {"test_system": "Total rat MAO (rat liver mitochondrial preparate)", "assay": "Total rat MAO activity, colourimetric assay (tyramine substrate)", "type": "biochemical", "conditions": "read-out: Total MAO inhibitory activity IC50; rat liver MAO preparation, 0.5 mM tyramine, 1 h at 37° C.", "description": "Rat MAO was prepared from rat liver by rinsing a 1 g liver sample several times in 14 ml KCl-EDTA-solution to remove all blood. Then 1 g liver sample was homogenised in 4 ml ice-cold potassium phosphate buffer (0.1 M, pH 7.4) with an Ultra-Turrax homogeniser (setting 11 000 rpm, 4×10 s). After centrifugation at 500 g for 10 min at 4° C. the supematant was carefully withdrawn and was centrifuged at 12 300 g for 15 min at 4° C. The supernatant was discharged and sedimented mitochondria were resuspended in 4 ml fresh phosphate buffer and centrifuged as previously. The mitochondria were suspended in 4 ml phosphate buffer and homogenized with an Ultra-Turrax homogeniser (setting 11 000 rpm, 2×10 s). Mitochondrial preparate was aliquoted and stored at −70° C. […] To each well was added a predetermined amount of inhibitor if required. The amount of inhibitor varied in each assay but was generally at a final concentration of between 10 nM and […]. Controls lacked inhibitor. […] The plates were incubated for 30 min at 37° C. and the background absorbance measured at 490 nm using a Wallac Victor II multilabel counter. […] The increase in absorbance, reflecting MAO activity, was measured at 490nm. Inhibition was presented as percent inhibition compared to control after correcting for background absorbance and IC50 values calculated using GraphPad Prism. […]"}}, "data": [{"smiles": "COc1cccc(OC[C@H](O)CN(C)N)c1", "values": [{"measurement": "Selectivity for VAP-1 SSAO over MAO", "setting": "[1]", "result": 62}, {"measurement": "IC50", "setting": "[1]", "result": 0.39, "unit": "µM"}, {"measurement": "IC50", "setting": "[2]", "result": 21, "unit": "µM"}]}, {"smiles": "COc1cccc(OC[C@@H](O)CN(C)N)c1", "values": [{"measurement": "Selectivity for VAP-1 SSAO over MAO", "setting": "[1]", "result": 94}, {"measurement": "IC50", "setting": "[1]", "result": 0.34, "unit": "µM"}, {"measurement": "IC50", "setting": "[2]", "result": 32, "unit": "µM"}]}]}
